We go through 1 compound from ChEMBL document CHEMBL3272034.

In series [1] the test system is KB. The series is described as follows: Growth inhibition of human KB cells assessed as cell growth at 1 ug/ml after 16 hrs by EORTC method relative to control.
Series [2] can be described thus: Stability of the compound at pH 4.18. The note with it: buffer.
Series [3] relates to KB. The series is described as follows: Growth inhibition of human KB cells assessed as cell growth at 10 ug/ml after 16 hrs by EORTC method relative to control.
Series [4] deals with KB. The series is described as follows: Growth inhibition of human KB cells assessed as cell growth at 10 ug/ml after 72 hrs by EORTC method relative to control.
Series [5] deals with KB. The series is described as follows: Growth inhibition of human KB cells assessed as cell growth at 100 ug/ml after 72 hrs by EORTC method relative to control.
The subject of series [6] is KB. Briefly: Growth inhibition of human KB cells assessed as cell growth at 100 ug/ml after 16 hrs by EORTC method relative to control.
Series [7] relates to KB. Briefly: Growth inhibition of human KB cells assessed as cell growth at 1 ug/ml after 72 hrs by EORTC method relative to control.

As to `Cc1[nH]c(=O)[nH]c(=O)c1CN(CCCl)CCCl.Cl`, the growth inhibition (GI) in series [1] was 67%; in series [3], 63%; in series [4], 9%; in series [5] it was 91%; in series [6], -77%; in series [7], 32%. Besides, the Stability entry in series [2] is reported as “Unstable”.
